Tests used:
KDM4EJmjC (M1–Q337) [1] = target: T1, KDM4EJmjC (M1–Q337) (Homo sapiens, UniProt B2RXH2); assay: MALDI-TOF demethylation assay, KDM4EJmjC; type: biochemical
T1 construct: We chose human KDM4EJmjC (M1–Q337); made in house
T1 sequence (B2RXH2 1-337): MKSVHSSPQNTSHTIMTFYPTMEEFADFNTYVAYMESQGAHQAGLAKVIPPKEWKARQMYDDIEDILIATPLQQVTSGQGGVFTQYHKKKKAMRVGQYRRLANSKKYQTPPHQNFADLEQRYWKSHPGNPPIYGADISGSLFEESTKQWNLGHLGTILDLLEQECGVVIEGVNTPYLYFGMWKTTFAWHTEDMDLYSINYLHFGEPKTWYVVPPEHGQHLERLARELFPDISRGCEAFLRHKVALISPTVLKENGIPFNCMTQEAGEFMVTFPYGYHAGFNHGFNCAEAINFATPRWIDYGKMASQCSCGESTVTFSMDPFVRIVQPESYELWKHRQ
Text: We chose human KDM4EJmjC (M1–Q337), a histone H3K9me3/2 demethylase with relatively high demethylation activity as a model enzyme. Reactions were monitored using MALDI-TOF mass spectrometry (Fig. 5b–d).
A Bruker Daltonics MALDI-TOF/TOF AutoflexSpeed machine and Bruker MTP 384 target plates (polished steel BC, Part: 8280781) were used. The machine was controlled using Flex control (v. 3.4 build 135.10) and Compass for flex series (v. 1.4) software. Measurements were in the positive ion mode with the reflectron mode enabled. Incubations employed ProxiPlate-384™ (Perkin Elmer) plates into which was pipetted a solution of [H3_1-15K9me3 (10.0 µM), (+)-sodium L-ascorbate (1.0 mM), (NH4)2Fe(II)(SO4)2 (100 µM), di-sodium 2-oxoglutarate (200 µM) in buffer (HEPES (50 mM)) in MilliQ (pH 7.5)] (5.0 µL) using ClipTip™ (Thermo Scientific™) pipette tips and E1-ClipTip™ (Thermo Scientific™). The enzyme solution [KDM4EJmjC (1.0 µM) in HEPES (50 mM)] (5.0 µL) was added to initiate reaction at 37 °C. Reactions were quenched with formic acid in water (2%, 5.0 µL). Samples were then spotted onto a MALDI-TOF target plate (1.0 µL), MALDI matrix [sat. sol. α-cyano-4-hydroxy-cinnamic acid (10 mg·mL^−1) in {trifluoro acetic acid, acetonitrile and MilliQ (0.1:50:50)}] (1.0 µL) was added, mixed, and dried in air. Samples were then analysed by MALDI-TOF. Specific experiments were supplemented with catalase from bovine liver (C3155-50MG, Merck) (5.0 µM), bovine albumin serum (BSA, Perkin Elmer, CR84-100, DTPA purified 7.5%) (5.0 µM), or Tris(carboxyethyl)phosphine hydrochloride salt (TCEP, M02624, Fluorochem) (500 µM).

KDM4EJmjC (M1–Q337) [2] = target: T1, KDM4EJmjC (M1–Q337); assay: FDH coupled demethylation assay (formaldehyde release), KDM4EJmjC; type: biochemical; settings: FDH-coupled NADH, KDM4EJmjC 0.1 µM, peptide 0–50 µM, n = 2 or 3
Experimental: To test whether formaldehyde is generated by H3KP9me3 demethylation, a formaldehyde dehydrogenase (FDH) coupled assay was employed (Supplementary Fig. 19a)[34],[37].
Supplementary Fig. 19 KDM4EJmjC catalysed demethylation of H3K9me 3 coupled to formaldehyde dehydrogenase measurement of the formation of NADH. a FDH enzyme coupled to KDM4E JmjC demethylation assay measuring the levels of NADH as function of the demethylation. b FDH Activity assay with KDM4E JmjC (0.1 µM) and varied concentrations of H3K9me 3 (0–50 µM). c Michaelis-Menten analysis. Standard conditions: FDH (1.0 µM), Asc (1.0 mM), Fe(II) (50 µM), 2OG (200 µM) and NAD+ (250 µM). Errors are standard deviations of the mean (n = 2 or 3).
(1 picture or pasted object on this page, not shown here)
Supplementary Fig. 20 FDH activity assay of KDM4E JmjC (0–10 µM) catalysed demethylation of H3K P9me 3 (10 µM) […]
Standard conditions: FDH (1.0 µM), Ascorbate (1.0 mM), Fe(II) (50 µM), 2OG (200 µM) and NAD + (250 µM). Errors are standard deviations of the mean (n = 3 or 4).

KDM4AJmjC (M1–L359) = assay: MALDI-TOF demethylation assay, KDM4AJmjC; type: biochemical, human; settings: KDM4AJmjC 2.4 µM, peptide 5.0 µM, 1 hr, duplicates
Text: To investigate whether H3KP9me3 can be demethylated by other human KDM4 subfamily members, recombinant KDM4AJmjC (M1–L359) and KDM4DJmjC (M1–L358) were produced in E. coli following an adaption of literature procedures[38],[39]. […] No evidence for further demethylation was accrued. […] To test the ability of KDM3 and KDM7 subfamily representatives to demethylate H3KP9me2 or H3KP9me3, KDM3AJmjC (T515–S1317) and KDM7BJmjC (M37–N483) were produced using baculovirus/sf9 and E. coli expression systems, respectively[40],[41]. The synthesis of a histone H3 mimic peptide H3KP9me2 substrate is challenging as the tri-alkylated phosphine group is susceptible to oxidation during synthesis of the protected amino acid and during SPPS requiring oxygen-free conditions. Thus, to investigate if KDM3AJmjC or KDM7BJmjC can catalyse demethylation of H3KP9me2, an appropriate H3KP9me2 substrate was prepared in situ from H3KP9me3 using KDM4EJmjC (2.0 µM), in the presence of KDM3AJmjC (2.0 µM) or KDM7BJmjC (2.0 µM).
A Bruker Daltonics MALDI-TOF/TOF AutoflexSpeed machine and Bruker MTP 384 target plates (polished steel BC, Part: 8280781) were used. The machine was controlled using Flex control (v. 3.4 build 135.10) and Compass for flex series (v. 1.4) software. Measurements were in the positive ion mode with the reflectron mode enabled. […] Samples were then analysed by MALDI-TOF. […]

[3] = MALDI-TOF, KDM4EJmjC 0.5 µM, H3K9me3 1–20 µM, Asc 500 µM, Fe(II) 50 µM, 2OG 100 µM, HEPES pH 7.5, 37 °C, n=2

ARTKQTAR(Kme3)STGGKA [H3K9me3, natural trimethyllysine control peptide, histone H3 residues 1–15, reference compound]
demethylation in competition assay (KDM4EJmjC (M1–Q337) [1]; H3K9me3 (5.0 µM) and H3KP9me3 (5.0 µM) in the same vessel, KDM4EJmjC 0.5 µM): converted to H3K9me2/1 with the same efficiency as the control
relative substrate quality / rate (KDM4EJmjC (M1–Q337) [1]; H3K9me3 versus H3KP9me3): substantially better substrate than H3KP9me3
demethylation in omission controls (KDM4EJmjC (M1–Q337) [1]; H3KP9me3: without KDM4EJmjC, Asc, Fe(II) or 2OG, H3K9me3: without Asc and Fe(II), 1 hr): some demethylation was observed
demethylation (KDM4EJmjC (M1–Q337) [1]; KDM4EJmjC 0.5 µM (H3KP9me3 also at 5.0 µM enzyme), peptide 5.0 or 6.0 µM, Asc 500 µM, Fe(II) 50 µM, 2OG 100 µM): efficiently catalysed the di-demethylation
Km (KDM4EJmjC (M1–Q337) [1]; [3]): 6.1 µM
Vmax (KDM4EJmjC (M1–Q337) [1]; [3]): 2.7 µM/min
kcat (KDM4EJmjC (M1–Q337) [1]; [3]): 0.0883 s⁻¹
Km (KDM4EJmjC (M1–Q337) [2]; FDH 1.0 µM, Asc 1.0 mM, Fe(II) 50 µM, 2OG 200 µM, NAD+ 250 µM): 5.1 µM
Vmax (KDM4EJmjC (M1–Q337) [2]): 0.61 µM/min
kcat (KDM4EJmjC (M1–Q337) [2]): 0.102 s⁻¹
demethylation (KDM4AJmjC (M1–L359)): clear demethylation activity
